One assay addresses apo-EcDHFR (Escherichia coli, UniProt P0ABQ4). As to the kind of experiment: ITC, NADP+ binding to apo-EcDHFR. The arrangement: species or system E. coli. The conditions noted are these: read-out: Kd of NADP^+ binding to apo-EcDHFR, buffer alone, 25 °C, pH 7.0.
A further assay deals with R67 DHFR (Escherichia coli, UniProt P00383). As to the kind of experiment: ITC, NADP+ binding to apo-R67 DHFR. As to conditions: read-out: Kd of NADP^+ binding to apo-R67 DHFR, buffer, 25 °C, pH 7.0.

Chains of the proteins cited; added tags and fusions are not shown. Lines headed by an entry give the natural chain unless they say otherwise; changes in a name come on top.
UniProt P0ABQ4: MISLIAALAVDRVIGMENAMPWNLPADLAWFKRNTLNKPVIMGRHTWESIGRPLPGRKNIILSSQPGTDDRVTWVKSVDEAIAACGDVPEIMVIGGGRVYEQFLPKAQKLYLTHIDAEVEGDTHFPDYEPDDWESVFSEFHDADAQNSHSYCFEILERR
UniProt P00383: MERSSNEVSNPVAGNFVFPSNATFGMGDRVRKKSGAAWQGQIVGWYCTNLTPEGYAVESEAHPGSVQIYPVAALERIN

In the case of “oxidized nicotinamide adenine dinucleotide phosphate [NADP^+, reference compound]”, the Kd on apo-EcDHFR turned out to be 5 ± 0.4 µM; on R67 DHFR, 98 ± 9 µM.

Source of the values: PMC6589827 (Biochemistry, 2019).
